{"sequences": {"note": "Amino acid sequences for entries named in this document (tags omitted).", "UniProt Q96LB2, whole entry": "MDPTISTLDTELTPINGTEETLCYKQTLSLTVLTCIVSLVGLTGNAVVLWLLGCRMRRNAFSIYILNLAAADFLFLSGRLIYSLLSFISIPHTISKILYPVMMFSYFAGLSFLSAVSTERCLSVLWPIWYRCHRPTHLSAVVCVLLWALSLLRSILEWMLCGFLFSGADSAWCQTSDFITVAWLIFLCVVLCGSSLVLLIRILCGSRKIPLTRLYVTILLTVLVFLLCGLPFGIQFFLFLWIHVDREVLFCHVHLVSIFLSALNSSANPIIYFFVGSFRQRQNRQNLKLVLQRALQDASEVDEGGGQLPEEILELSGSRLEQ"}, "source": "PubChem BioAssay AID588675", "about": "(Johns Hopkins Ion Channel Center, 2011)", "note": "The list shows a part of the results, in another mix than the full data. The source made the active and inactive calls.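 The calls were made as follows: active = plate-corrected calcium response at least 3 library SD above typical, normal starting fluorescence, not activating the receptor alone; inactive = the rest.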", "data": [{"biological_target": "Mas-related G-protein coupled receptor member X1 (Homo sapiens) (UniProt Q96LB2)", "assay": "allosteric enhancers of human MrgX1 signaling – HEK293 cells, Fluo-4 calcium flux, primary screen (AID 588675);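 also: compound read alongside a low EC10 to EC30 dose of BAM8-22 agonist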;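 as to B-score: peak minus trough fluorescence over baseline measured at the second addition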", "settings": "MrgX1-HEK293, Fluo-4 calcium flux, FDSS, at 10 µM; hits give high values", "values": [{"smiles": "COc1cc(C(=O)NCC2(N3CCCCC3)CCCCC2)ccc1OC(F)F", "outcome": "inactive"}, {"smiles": "O=C(NCC1(N2CCOCC2)CCCCC1)c1cc(=O)[nH]c2ccccc12", "outcome": "inactive"}, {"smiles": "CN1CCN(CCOC(=O)C(O)(c2ccccc2)c2ccccc2)CC1", "outcome": "inactive"}, {"smiles": "COc1ccc(NC2CCN(C(=O)OC(C)(C)C)CC2)cc1", "outcome": "inactive"}, {"smiles": "O=C(NCC1(N2CCCCC2)CCCCC1)c1cccc(C(F)(F)F)c1", "outcome": "inactive"}, {"smiles": "N#CC1(Nc2ccccc2)CCN(CCc2ccccc2)CC1", "outcome": "inactive"}, {"smiles": "CCN1CCC(Nc2ccc(Cl)cc2)CC1", "outcome": "inactive"}, {"smiles": "O=C(NCC1(N2CCCCC2)CCCCC1)c1cccc([N+](=O)[O-])c1", "outcome": "inactive"}, {"smiles": "O=C(NCC1(N2CCCCC2)CCCCC1)c1ccc(OC(F)F)cc1", "outcome": "inactive"}, {"smiles": "CCCOc1ccc(C(=O)NCC2(N(C)C)CCCCC2)cc1OC", "outcome": "inactive"}, {"smiles": "CN1CCC(Nc2cccc(F)c2)CC1", "outcome": "inactive"}, {"smiles": "COc1cc(OC)c(C(=O)NCC2(N(C)C)CCCCC2)cc1OC", "outcome": "inactive"}, {"smiles": "CC(C)c1ccc(NC2CCN(C(=O)OC(C)(C)C)CC2)cc1", "outcome": "inactive"}, {"smiles": "CN(C)c1cccc(C(=O)NCC2(N3CCCCC3)CCCCC2)c1", "outcome": "inactive"}, {"smiles": "COc1ccc(CN(CCCl)CCCl)cc1Cl", "outcome": "inactive"}, {"smiles": "O=C(OC1CN2CCC1CC2)C1c2ccccc2Oc2ccccc21", "note": "(centres undefined)", "outcome": "inactive"}, {"smiles": "N#CC1(Nc2ccccc2)CCN(Cc2ccccc2)CC1", "outcome": "inactive"}, {"smiles": "CCOC(=O)N1CCC(Nc2ccc(OC)cc2)CC1", "outcome": "inactive"}, {"smiles": "Cc1cc(C)cc(N(C(=O)c2ccccc2)C2CCN(C(=O)OC(C)(C)C)CC2)c1", "outcome": "inactive"}, {"smiles": "O=C(NCC1(N2CCCCC2)CCCCC1)c1ccc(Cl)nc1", "outcome": "inactive"}, {"smiles": "O=C(NCC1(N2CCOCC2)CCCCC1)c1cc2ccccc2o1", "outcome": "inactive"}, {"smiles": "CSc1ccccc1C(=O)NCC1(N2CCCCC2)CCCCC1", "outcome": "inactive"}, {"smiles": "COc1ccc(C(=O)NCC2(N3CCCCC3)CCCCC2)c(OC)c1OC", "outcome": "inactive"}, {"smiles": "CC(C)(C)OC(=O)N1CCC(N(C(=O)c2ccccc2)c2ccc(F)cc2)CC1", "outcome": "inactive"}, {"smiles": "COc1ccc(C(=O)NCC2(N3CCCCC3)CCCCC2)cc1", "outcome": "inactive"}, {"smiles": "O=C(NCC1(N2CCCCC2)CCCCC1)c1cccs1", "outcome": "inactive"}, {"smiles": "O=C(NCC1(N2CCCCC2)CCCCC1)c1ccc(=O)[nH]c1", "outcome": "inactive"}, {"smiles": "Cc1ccc(OCC(C)C)c(CN(CCCl)CCCl)c1", "outcome": "inactive"}, {"smiles": "COc1cc(C(=O)NCC2(N(C)C)CCCCC2)ccc1OC(F)F", "outcome": "inactive"}, {"smiles": "CCOC(=O)N1CCC(Nc2cccc(C)c2)CC1", "outcome": "inactive"}, {"smiles": "COc1ccc(NC2CCN(CCc3ccccc3)CC2)c(OC)c1", "outcome": "inactive"}, {"smiles": "CCOC(=O)N1CCC(Nc2ccc(F)cc2)CC1", "outcome": "inactive"}, {"smiles": "O=C(NCC1(N2CCCCC2)CCCCC1)c1ccc(F)cc1", "outcome": "inactive"}, {"smiles": "CCOc1ccc(C)cc1CN(CCCl)CCCl", "outcome": "inactive"}, {"smiles": "CN(C)c1ccc(C(=O)NCC2(N3CCCCC3)CCCCC2)cc1", "outcome": "inactive"}, {"smiles": "CCN1CCC(Nc2cccc(F)c2)CC1", "outcome": "inactive"}, {"smiles": "Fc1ccccc1NC1CCN(Cc2ccccc2)CC1", "outcome": "inactive"}, {"smiles": "Cc1ccc(C(=O)NCC2(N3CCCCC3)CCCCC2)o1", "outcome": "inactive"}, {"smiles": "COc1cc(OC)cc(C(=O)NCC2(N3CCCCC3)CCCCC2)c1", "outcome": "inactive"}, {"smiles": "CN1CCC(Nc2ccc(Cl)cc2)CC1", "outcome": "inactive"}, {"smiles": "CCCOc1ccc(C)cc1CN(CCCl)CCCl", "outcome": "inactive"}, {"smiles": "COc1cc(OC)cc(C(=O)NCC2(N3CCOCC3)CCCCC2)c1", "outcome": "inactive"}, {"smiles": "COc1cccc(C(=O)N(c2cc(C)cc(C)c2)C2CCN(C(=O)OC(C)(C)C)CC2)c1", "outcome": "inactive"}, {"smiles": "CCC(CO)(C(=O)OC1CN2CCC1CC2)c1ccccc1", "note": "(centres undefined)", "outcome": "inactive"}, {"smiles": "O=C(O)C1(Nc2ccccc2)CCN(Cc2ccccc2)CC1", "outcome": "inactive"}, {"smiles": "CC(C)(C)OC(=O)N1CCC(Nc2ccccc2)CC1", "outcome": "inactive"}, {"smiles": "CCCOc1ccc(C(=O)NCC2(N(C)C)CCCCC2)cc1", "outcome": "inactive"}, {"smiles": "CN1CCC(Nc2ccc(F)c(Cl)c2)CC1", "outcome": "inactive"}, {"smiles": "CCOc1ncccc1C(=O)NCC1(N2CCOCC2)CCCCC1", "outcome": "inactive"}, {"smiles": "O=C(OC1CN2CCC1CC2)C1c2ccccc2C=Cc2ccccc21", "note": "(centres undefined)", "outcome": "inactive"}, {"smiles": "CCc1cc(C(=O)NCC2(N3CCCCC3)CCCCC2)sc1C", "B-score": "active: 7.72"}, {"smiles": "CCOC(=O)N1CCC(Nc2ccc(C)cc2)CC1", "outcome": "inactive"}, {"smiles": "N/C(=N\\O)c1c(N)no[n+]1[O-]", "outcome": "inactive"}, {"smiles": "COc1ccc(C(=O)NCC2(N3CCOCC3)CCCCC2)cc1OC", "outcome": "inactive"}, {"smiles": "CN(C)C1(CNC(=O)c2cccc(C#N)c2)CCCCC1", "outcome": "inactive"}, {"smiles": "CCCN1CCC(Nc2cc(OC)cc(OC)c2)CC1", "outcome": "inactive"}, {"smiles": "c1ccc(CN2CCC(Nc3ccccc3)CC2)cc1", "outcome": "inactive"}, {"smiles": "N#Cc1ccc(C(=O)NCC2(N3CCCCC3)CCCCC2)cc1", "outcome": "inactive"}, {"smiles": "CC(C)(C)OC(=O)N1CCC(N(C(=O)c2ccccc2)c2ccc(Cl)cc2)CC1", "outcome": "inactive"}]}]}
